One may read the IC50 as the concentration that inhibits the measured activity by half. A lower IC50 goes with inhibition by little substance.

Amino acid sequences for entries named in this document (tags omitted). A change or cut given only in a name is not applied to a line headed by its entry.
UniProt Q9Y5Y4: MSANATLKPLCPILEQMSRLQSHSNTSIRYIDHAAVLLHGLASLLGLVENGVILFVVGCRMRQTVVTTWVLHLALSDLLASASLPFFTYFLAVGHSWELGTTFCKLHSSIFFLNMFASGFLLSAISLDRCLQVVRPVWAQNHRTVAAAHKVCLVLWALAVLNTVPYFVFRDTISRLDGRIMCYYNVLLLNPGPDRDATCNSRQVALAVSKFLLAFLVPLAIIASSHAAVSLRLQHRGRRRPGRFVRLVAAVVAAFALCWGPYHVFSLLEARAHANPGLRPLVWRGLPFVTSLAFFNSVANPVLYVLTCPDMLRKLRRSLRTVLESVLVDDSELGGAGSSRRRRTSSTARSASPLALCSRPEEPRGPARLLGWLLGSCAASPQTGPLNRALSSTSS

Molecules are shown by their SMILES. Where a name gives a salt, the structure may show the parent alone.

The record followed here is US9255090B2, “Heterocyclyl derivatives and their use as prostaglandin D2 receptor modulators” (Actelion Pharmaceuticals Ltd., priority 2012, dated 2016).

The assay deals with hCRTH2 receptor (Homo sapiens (Human), UniProt Q9Y5Y4). Briefly: hCRTH2 receptor membranes radioligand (3H-PGD2) displacement assay. It counts as binding. To be noted: 3H-PGD2 radioligand displacement, HEK293-hCRTH2 membranes. As for the experimental part: Biological Assays: Preparation of hCRTH2 Receptor Membranes and Radioligand Displacement Assay:
First, recombinant HEK293-hCRTH2 cells were detached from culture plates into 5 ml buffer A/plate (Buffer A: 5 mM Tris, 1 mM MgCl2-6H2O pH=7.4) using a rubber policeman. Cells were then transferred into centrifugation tubes and centrifuged for 5 min at 400 g. The cell pellet was resuspended in the same buffer and tubes were frozen at −80° C. Cells were thawed and membrane fragments were generated by homogenization using a polytron homogenizer (30 seconds). The membrane fragments were then centrifuged at 3000 g for 20 minutes and resuspended in buffer C (Buffer C: 75 mM Tris, 25 mM MgCl2, 250 mM Saccharose pH 7.4). Aliquots of membrane fragments were stored at −20° C.
Binding assay was performed in a final assay volume of 250 μl. First, 25 μl of test compound, previously diluted in Binding-Buffer (Binding-Buffer: 50 mM Tris-Base, 100 mM NaCl, 1 mM EDTA, 0.1% BSA (protease free), 0.01% NaN3, 10 mM MnCl2, pH 7.0) was placed into each well. After addition of 75 μl Binding-Buffer, 50 μl of the radioligand ^3H-PGD2 (at 2.5 nM (220.000 dpm/well) from ANAWA ART0662) was added to each well. Binding assay was started by addition of 100 μl CRTH2 membrane fragments, reaching a final concentration of 20 μg/well. For non-specific binding, PGD2 was added to the reaction mixture to […] final concentration. This assay mix was incubated for 90 minutes at room temperature and then filtered through a GF/C filter 96-well plate which was pre-soaked for 3 hours in 0.5% polyethyleneimine (PEI). The filter-wells were washed three times with ice cold Binding-Buffer. Then, 40 μl of Microscint-40 (Packard) was added to each well and the retained radioactivity quantified in a Topcount (Packard).
Regarding `CCOc1ccc(CC(=O)O)cc1-c1ccc(F)c2c1CN(C(=O)CC1COc3ccccc31)CC2` (stereo not drawn) [Example 207, {3-[2-(2-2,3-Dihydro-benzofuran-3-yl-acetyl)-5-fluoro-1,2,3,4-tetrahydro-isoquinolin-8-yl]-4-ethoxy-phenyl}-acetic acid], the IC50 was found to be 1.4 nM.
`COc1ccc(CC(=O)O)cc1-c1ccc(F)c2c1CN(C(=O)[C@@H]1C[C@H]1c1ccccn1)CC2` (racemic) [Example 361]: the half-maximal inhibitory concentration (IC50) stood at 2.2 nM.
Compound `COc1ccc(CC(=O)O)cc1-c1ccc(F)c2c1CN(C(=O)C1CC1(C)C)CC2` (racemic) [Example 55, (±)-{3-[2-(2,2-Dimethyl-cyclopropanecarbonyl)-5-fluoro-1,2,3,4-tetrahydro-isoquinolin-8-yl]-4-methoxy-phenyl}-acetic acid] came in with an IC50 of 45.7 nM.
For the compound `COc1ccc(CC(=O)O)cc1-c1ccc(F)c2c1CN(C(=O)[C@@H]1C[C@H]1c1cccc(F)c1)CC2` [Example 65, (3-{5-Fluoro-2-[(1R,2R)-2-(3-fluoro-phenyl)-cyclopropanecarbonyl]-1,2,3,4-tetrahydro-isoquinolin-8-yl}-4-methoxy-phenyl)-acetic acid], the IC50 is 1.85 nM.
Turning to `COc1cc(CC(=O)O)ccc1-c1ccc(F)c2c1CN(C(=O)CC1CCOc3ccccc31)CC2` (stereo not drawn) [Example 200, {4-[2-(2-Chroman-4-yl-acetyl)-5-fluoro-1,2,3,4-tetrahydro-isoquinolin-8-yl]-3-methoxy-phenyl}-acetic acid], the IC50 was 8 nM.
In turn, `COc1ccc(CC(=O)O)cc1-c1ccc(F)c2c1CN(C(=O)C1CC(=O)c3ccccc3C1)CC2` (racemic) [Example 114, (±)-{3-[5-Fluoro-2-(4-oxo-1,2,3,4-tetrahydro-naphthalene-2-carbonyl)-1,2,3,4-tetrahydro-isoquinolin-8-yl]-4-methoxy-phenyl}-acetic acid] showed a 50% inhibitory concentration (IC50) of 21.2 nM.
Turning to `COc1ccc([C@@H]2C[C@H]2C(=O)N2CCc3c(F)ccc(-c4cc(CC(=O)O)ccc4OC)c3C2)cc1` (racemic) [Example 96, (±)-(3-{5-Fluoro-2-[trans-2-(4-methoxy-phenyl)-cyclopropanecarbonyl]-1,2,3,4-tetrahydro-isoquinolin-8-yl}-4-methoxy-phenyl)-acetic acid], the IC50 was 21.2 nM.
`CCOc1cc(CC(=O)O)ccc1-c1ccc(F)c2c1CN(C(=O)CC(c1ccccn1)C1CC1)CC2` (racemic) [Example 319]: the 50% inhibitory concentration (IC50) came out at 36.3 nM.
In the case of `COc1ccc(CC(=O)O)cc1-c1ccc(F)c2c1CN(C(=O)[C@@H]1C[C@H]1c1ccccc1C(F)(F)F)CC2` (racemic) [Example 95, (±)-(3-{5-Fluoro-2-[trans-2-(2-trifluoromethyl-phenyl)-cyclopropanecarbonyl]-1,2,3,4-tetrahydro-isoquinolin-8-yl}-4-methoxy-phenyl)-acetic acid], the half-inhibitory concentration (IC50) was 0.22 nM.
Take `COc1cccc(C(C)CC(=O)N2CCc3c(F)ccc(-c4cc(CC(=O)O)ccc4OC)c3C2)n1` (racemic) [Example 248, hydrochloride]: the IC50 came out at 77.9 nM.
In turn, `COc1ccc(CC(=O)O)cc1-c1ccc(F)c2c1CN(C(=O)CC1CC(C)(C)Oc3ccccc31)CC2` (racemic) [Example 240] displayed a concentration for half-maximal inhibition (IC50) of 3.6 nM.
In turn, `COc1ccc(CC(=O)O)cc1-c1ccc(F)c2c1CN(C(=O)C1Cc3ccccc31)CC2` (racemic) [Example 116, (±)-{3-[2-(Bicyclo[4.2.0]octa-1(6),2,4-triene-7-carbonyl)-5-fluoro-1,2,3,4-tetrahydro-isoquinolin-8-yl]-4-methoxy-phenyl}-acetic acid] gave an IC50 of 211 nM.
`CCOc1ccc(CC(=O)O)cc1-c1ccc(F)c2c1CN(C(=O)CC1COCc3ccccc31)CC2` (stereo not drawn) [Example 209, {4-Ethoxy-3-[5-fluoro-2-(2-isochroman-4-yl-acetyl)-1,2,3,4-tetrahydro-isoquinolin-8-yl]-phenyl}-acetic acid]: the IC50 came to 3.4 nM.
Turning to `CCOc1ccc(CC(=O)O)cc1-c1ccc(F)c2c1CN(C(=O)CC1COc3ccccc31)CC2` (stereo not drawn) [Example 208, {3-[2-(2-2,3-Dihydro-benzofuran-3-yl-acetyl)-5-fluoro-1,2,3,4-tetrahydro-isoquinolin-8-yl]-4-ethoxy-phenyl}-acetic acid], the IC50 came out at 1.6 nM.
On to `COc1ccc(CC(=O)O)cc1-c1ccc(F)c2c1CN(C(=O)CC(C)c1cccc(C)n1)CC2` (racemic) [Example 249, hydrochloride], for which the half-inhibitory concentration (IC50) is 40.4 nM.
As for `Cc1cccc(C(C)CC(=O)N2CCc3c(F)ccc(-c4cc(CC(=O)O)ccc4OCC(F)(F)F)c3C2)n1` (racemic) [Example 303], the half-inhibitory concentration (IC50) came out at 6.6 nM.
For `CC(C)Oc1ccc(CC(=O)O)cc1-c1ccc(F)c2c1CN(C(=O)CC1COCc3ccccc31)CC2` (racemic) [Example 296], the IC50 was determined as 0.8 nM.
Regarding `CCOc1ccc(CC(=O)O)cc1-c1ccc(F)c2c1CN(C(=O)OCC1CCCO1)CC2` (racemic) [Example 384], the IC50 was determined as 14.8 nM.
Consider `COc1ccc(CC(=O)O)cc1-c1ccc(F)c2c1CN(C(=O)[C@@H]1C[C@H]1c1ccccc1)C2` (racemic) [Example 37, (±)-{3-[7-Fluoro-2-(trans-2-phenyl-cyclopropanecarbonyl)-2,3-dihydro-1H-isoindol-4-yl]-4-methoxy-phenyl}-acetic acid], for which the IC50 came out at 7.54 nM.
In the case of `CCOc1cc(CC(=O)O)ccc1-c1ccc(F)c2c1CN(C(=O)[C@@H]1C[C@H]1c1ccccn1)CC2` (racemic) [Example 322], the IC50 worked out at 1.3 nM.
Take `CCOc1ccc(CC(=O)O)cc1-c1ccc(F)c2c1CN(C(=O)CC1(C)CCCc3ccccc31)CC2` (racemic) [Example 334]: the concentration for half-maximal inhibition (IC50) came out at 10.2 nM.
On to `COc1cc(CC(=O)O)ccc1-c1ccc(F)c2c1CN(C(=O)CC1CCOc3ccccc31)CC2` (stereo not drawn) [Example 201, {4-[2-(2-Chroman-4-yl-acetyl)-5-fluoro-1,2,3,4-tetrahydro-isoquinolin-8-yl]-3-methoxy-phenyl}-acetic acid], for which the IC50 came out at 9.5 nM.
`CCOc1ccc(CC(=O)O)cc1-c1ccc(F)c2c1CN(C(=O)CC1CC(C)(C)Oc3ccccc31)CC2` (racemic) [Example 331] yielded an IC50 of 9.6 nM.
Regarding `COc1ccc(CC(=O)O)cc1-c1ccc(F)c2c1CN(C(=O)C1CCc3ccccc3C1)CC2` (racemic) [Example 123, (±)-{3-[5-Fluoro-2-(1,2,3,4-tetrahydro-naphthalene-2-carbonyl)-1,2,3,4-tetrahydro-isoquinolin-8-yl]-4-methoxy-phenyl}-acetic acid], the IC50 was 37.7 nM.
